Source: US20100166855A1, “ORAL INSULIN COMPOSITION AND METHODS OF MAKING AND USING THEREOF” (priority 2003, published 2010)

Settings: mouse; 14th day after intermuscular injection; implant of crystallized dextran microparticles

In the case of FITC-dextran, the “release of macromolecules from implant into muscle tissue” value is reported as “slow release”.
